Measured values: ChEMBL document CHEMBL4017513, “Structure-Activity Relationships of Potent, Targeted Covalent Inhibitors That Abolish Both the Transamidation and GTP Binding Activities of Human Tissue Transglutaminase” (J Med Chem, 2017)
The source made the active and inactive calls. No cut-off for these calls is given here.

Columns and labels:
[1] = target: T1, Protein-glutamine gamma-glutamyltransferase (Homo sapiens) (UniProt P21980); test: Inhibition of human TG2 binding with BODIPY GTP-gamma-S preincubated for 30 mins followed by BODIPY GTP-gamma-S addition measured after 10 mins
T1 sequence (whole entry): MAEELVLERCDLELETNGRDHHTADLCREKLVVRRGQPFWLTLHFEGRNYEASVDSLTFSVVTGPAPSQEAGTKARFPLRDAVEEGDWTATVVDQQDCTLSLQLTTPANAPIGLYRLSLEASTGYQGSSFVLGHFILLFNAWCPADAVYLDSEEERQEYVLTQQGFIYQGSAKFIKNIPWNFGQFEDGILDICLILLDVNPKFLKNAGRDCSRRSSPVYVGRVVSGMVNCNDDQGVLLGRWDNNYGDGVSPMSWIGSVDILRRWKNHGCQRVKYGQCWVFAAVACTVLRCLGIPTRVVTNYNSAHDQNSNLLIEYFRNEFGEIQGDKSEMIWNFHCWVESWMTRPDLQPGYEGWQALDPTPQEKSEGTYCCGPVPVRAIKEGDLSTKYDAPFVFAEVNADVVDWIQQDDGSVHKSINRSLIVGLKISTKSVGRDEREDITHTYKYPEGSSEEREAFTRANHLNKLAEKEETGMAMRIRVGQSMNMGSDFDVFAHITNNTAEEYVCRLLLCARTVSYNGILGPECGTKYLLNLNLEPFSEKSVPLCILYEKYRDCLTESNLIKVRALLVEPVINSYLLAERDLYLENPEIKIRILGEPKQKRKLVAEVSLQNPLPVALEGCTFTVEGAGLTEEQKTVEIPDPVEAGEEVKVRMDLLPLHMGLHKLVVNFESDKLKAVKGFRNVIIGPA

Homo sapiens [2] = species on record: Homo sapiens; test: Selectivity ratio of Kobs for human TG2 to Kobs for human F13a
Homo sapiens [3] = species on record: Homo sapiens; test: Selectivity ratio of Kobs for human TG2 to Kobs for human TG1

| Selectivity ratio (Homo sapiens [2]) | Selectivity ratio (Homo sapiens [3]) | Structure (SMILES) | inhibition [1] |
| --- | --- | --- | --- |
|  |  | C=CC(=O)NCCCC[C@H](NC(=O)OCc1ccccc1)C(=O)N1CCN(C(=O)c2cccc3ccccc23)CC1 | Active |
| 80 | 48 | C=CC(=O)NCCCC[C@H](NC(=O)OCc1ccccc1)C(=O)N1CCN(S(=O)(=O)c2cccc3c(N(C)C)cccc23)CC1 | Active |
